Laboratory results published in PubChem BioAssay AID1766 (National Center for Advancing Translational Sciences (NCATS), 2009).
This is a selection; strong and weak results do not stand in their true shares. Some of these compounds have results that are not shown, active ones among them. Results filed as inconclusive are left out. Activity calls are given as the source filed them. The call rests on the fitted dose curve; in most records, active means well fitted curve in the direction sought with a large enough effect in the polarisation (not every such curve was filed as active); inconclusive means small, poorly fitted or top-dose-only effect, or effect the other way, or a change in a side signal; inactive means no such curve, though single readings can be large or run the other way; the % refers to the polarisation.

assay: qHTS Assay for Inhibitors Targeting the Menin-MLL Interaction in MLL Related Leukemias: Competition With Fluorescein Labeled MLL-derived Peptide; settings: Fluorescence polarization, fluorescein-MLL peptide displacement from menin; at 61.4 µM (top of the series); further: % of control where 0% means no effect

SMILES | FP activity change
CN(C)c1cccc(C(=O)NCC2(N(C)C)CCCCC2)c1 | inactive: -0.195%
CC(C)Oc1ccc(C(=O)NCC2(N(C)C)CCCCC2)cc1 | inactive: -6.33%
O=C(OC1CN2CCC1CC2)C(CO)(c1ccccc1)c1ccccc1 (centres undefined) | inactive: 1.89%
O=C(NCC1(N2CCCCC2)CCCCC1)c1cccc(Cl)c1 | inactive: 3.39%
COc1cccc(C(=O)NCC2(N3CCCCC3)CCCCC2)c1 | inactive: 6.03%
COc1ccc(Cl)cc1C(=O)NCC1(N(C)C)CCCCC1 | inactive: 3.13%
COc1cc(C(=O)NCC2(N(C)C)CCCCC2)c([N+](=O)[O-])cc1OC | inactive: 3.74%
CN(C)C1(CNC(=O)c2ccc(Br)cc2)CCCCC1 | inactive: 0.222%
Cc1cc(C(=O)NCC2(N3CCCCC3)CCCCC2)ccc1[N+](=O)[O-] | inactive: 1.21%
CCN1CCCC(OC(=O)C2(O)c3ccccc3C=Cc3ccccc32)C1 (centres undefined) | inactive: 0.687%
O=C(NCC1(N2CCCCC2)CCCCC1)c1cccc(Br)c1 | inactive: -2.8%
COc1ccc(C(=O)NCC2(N(C)C)CCCCC2)cc1 | inactive: -11.4%
C=CCN1CCN(CCOC(=O)C(O)(c2ccccc2)c2ccccc2)CC1 | inactive: 0.87%
O=C(NCC1(N2CCCCC2)CCCCC1)c1cc(F)c(F)cc1Cl | inactive: -2.97%
CN1CCCC(OC(=O)C(O)(c2ccccc2)c2ccccc2)C1 (centres undefined) | inactive: -0.0326%
Cc1ccccc1C(=O)NCC1(N2CCCCC2)CCCCC1 | inactive: 7.58%
CN(C)C1CCCC1OC(=O)C(O)(c1ccccc1)c1ccccc1 (centres undefined) | inactive: -1.53%
CN(C)c1ccc(C(=O)NCC2(N(C)C)CCCCC2)cc1 | inactive: -1.16%
Cc1ccc(C(=O)NCC2(N3CCCCC3)CCCCC2)cc1 | inactive: 2.55%
CC(C)N1C(=O)CC2(CCN(CCOC(=O)C(O)(c3ccccc3)c3ccccc3)CC2)C1=O | inactive: -0.53%
CCN(CC)CC(C)C(C)OC(=O)C(O)(c1ccccc1)c1ccccc1 (centres undefined) | inactive: -1.69%
COc1cc(SC)ccc1C(=O)NCC1(N(C)C)CCCCC1 | inactive: 11.2%
CN1[C@@H]2CC[C@H]1CC(OC(=O)C(O)(c1ccccc1)c1ccccc1)C2 (some centres undefined) | inactive: -7.43%
O=C(NCC1(N2CCCCC2)CCCCC1)c1cc([N+](=O)[O-])ccc1Cl | inactive: 13.4%
